Results taken from paper PMC6405874, “Development of a novel short 12-meric papiliocin-derived peptide that is effective against Gram-negative sepsis” (Scientific Reports, 2019).
In brackets after ≈: the same amount, converted by molar mass.

Key:
Details in all cases: 1% peptone, 2 × 10^6 CFU/mL, 16 h, 37 °C
S. aureus (KCTC 1621) = test system: S. aureus (KCTC 1621)
Protocol: (§1) The antimicrobial activities of Pap12 peptides were tested against four standard Gram-negative bacteria (E. coli, Pseudomonas aeruginosa, Acinetobacter baumannii, and Salmonella typhimurium), three standard Gram-positive bacteria (Staphylococcus aureus, Bacillus subtilis, and Staphylococcus epidermidis), and five MDR bacteria (MDREC CCARM 1229, MDRPA CCARM 2002, MDRAB CCARM 12035, MDRST CCARM 8007, and MRSA CCARM 3126) using the microbroth dilution method. The relative antibacterial activities were compared based on geometric means of MICs (GM).
(§2) Escherichia coli (KCTC 1682), Pseudomonas aeruginosa (KCTC 2004), Acinetobacter baumannii (KCTC 2508), Salmonella typhimurium (KCTC 1926), Bacillus subtilis (KCTC 3068), Staphylococcus aureus (KCTC 1621), and Staphylococcus epidermidis (KCTC 1917) were purchased from the Korean Collection for Type Cultures, Korea Research Institute of Bioscience & Biotechnology (Taejon, Korea). Clinical isolates of MDR E. coli (MDREC; CCARM 1229), P. aeruginosa (MDRPA; CCARM 2002), A. baumannii (MDRAB; CCARM 12035), S. typhimurium (MDRST; CCARM 8007), and S. aureus (MDRSA; CCARM 3126) were supplied by the Culture Collection of Antibiotic-Resistant Microbe (CCARM) at Seoul Women’s University in Korea. The E. coli K1 strain RS218 (O18:K1:H7) was kindly provided by Dr. Jang-Won Yoon of Kangwon National University (Gangwon-do, Korea).
(§3) Peptides were treated with 2 × 10^6 CFU/mL bacterial suspensions in 1% peptone media for 16 h at 37 °C.

[1] = test system: P. aeruginosa (KCTC 2004)
Protocol: as §1, §2, §3

[2] = test system: S. typhimurium (KCTC 1926)
Protocol: as §1, §2, §3

E. coli (KCTC 1682) = test system: E. coli (KCTC 1682)
Protocol: as §1, §2, §3

B. subtilis (KCTC 3068) = test system: B. subtilis (KCTC 3068)
Protocol: as §1, §2, §3

## CC[C@H](C)[C@H](NC(=O)CN)C(=O)NCC(=O)N[C@@H](C)C(=O)N[C@H](C(=O)N[C@@H](CC(C)C)C(=O)N[C@@H](CCCCN)C(=O)N[C@H](C(=O)N[C@@H](CC(C)C)C(=O)N[C@H](C(=O)N[C@H](C(=O)NCC(=O)N[C@@H](CC(C)C)C(=O)N1CCC[C@H]1C(=O)N[C@@H](C)C(=O)N[C@@H](CC(C)C)C(=O)N[C@H](C(=O)N[C@@H](CO)C(=O)N[C@@H](Cc1c[nH]c2ccccc12)C(=O)N[C@H](C(=O)N[C@@H](CCCCN)C(=O)N[C@@H](CCCNC(=N)N)C(=O)N[C@@H](CCCCN)C(=O)N[C@@H](CCCNC(=N)N)C(=O)N[C@@H](CCC(N)=O)C(=O)N[C@@H](CCC(N)=O)C(N)=O)[C@@H](C)CC)[C@@H](C)CC)[C@@H](C)O)[C@@H](C)O)C(C)C)C(C)C [Melittin, reference compound]
S. aureus (KCTC 1621)
  Minimal inhibitory concentration (MIC), S. aureus: 4 µM (≈ 11.4 µg/mL)
[1]
  Minimal inhibitory concentration (MIC), P. aeruginosa: 8 µM (≈ 22.8 µg/mL)
[2]
  Minimal inhibitory concentration (MIC), S. typhimurium: 4 µM (≈ 11.4 µg/mL)
E. coli (KCTC 1682)
  Minimal inhibitory concentration (MIC), E. coli: 4 µM (≈ 11.4 µg/mL)
B. subtilis (KCTC 3068)
  Minimal inhibitory concentration (MIC), B. subtilis: 2 µM (≈ 5.69 µg/mL)
